Assays:
Rattus norvegicus [1] = species: Rattus norvegicus; assay: Open TG-GATES - Regimen: Daily Repeat; format: toxicity, organism-based, Sprague-Dawley; design: regimen Daily Repeat, gender Male, age 6 weeks; conditions: in vivo, po, tissue Blood, route gavage
Rattus norvegicus [2] = species: Rattus norvegicus; assay: Open TG-GATES - Regimen: Single; format: toxicity, organism-based, Sprague-Dawley; design: regimen Single, gender Male, age 6 weeks; conditions: in vivo, po, route gavage; for MCV / PT: tissue Blood
[3] = 0 mg/kg, 72 h, dose level Control, time 3 day
[4] = 0 mg/kg, […], dose level Control, time 7 day
[5] = 0 mg/kg, […], dose level Control, time 14 day
[6] = 0 mg/kg, […], dose level Control, time 28 day
[7] = 3 mg/kg, 72 h, dose level Low, time 3 day
[8] = 3 mg/kg, […], dose level Low, time 7 day
[9] = 3 mg/kg, […], dose level Low, time 14 day
[10] = 3 mg/kg, […], dose level Low, time 28 day
[11] = 10 mg/kg, 72 h, dose level Middle, time 3 day
[12] = 10 mg/kg, […], dose level Middle, time 7 day
[13] = 10 mg/kg, […], dose level Middle, time 14 day
[14] = 10 mg/kg, […], dose level Middle, time 28 day
[15] = 30 mg/kg, 72 h, dose level High, time 3 day
[16] = 30 mg/kg, […], dose level High, time 7 day
[17] = 30 mg/kg, […], dose level High, time 14 day
[18] = 30 mg/kg, […], dose level High, time 28 day
[19] = 0 mg/kg, 3 h, dose level Control
[20] = 0 mg/kg, 6 h, dose level Control
[21] = 0 mg/kg, 9 h, dose level Control
[22] = 0 mg/kg, 24 h, dose level Control
[23] = 10 mg/kg, 3 h, dose level Middle
[24] = 10 mg/kg, 6 h, dose level Middle
[25] = 10 mg/kg, 9 h, dose level Middle
[26] = 30 mg/kg, 24 h, dose level High

Compound: O=C(CCCN1CCC(O)(c2ccc(Cl)cc2)CC1)c1ccc(F)cc1 [HALOPERIDOL]
- PT (Rattus norvegicus [1]; [3]): 12.2 s
- WBC (Rattus norvegicus [1]; [3]): 58.1 x10_2/uL
- MCV (Rattus norvegicus [1]; [4]): 63.5 fL
- PT (Rattus norvegicus [1]; [4]): 12.2 s
- MCV (Rattus norvegicus [1]; [5]): 61.2 fL
- PT (Rattus norvegicus [1]; [5]): 12.2 s
- WBC (Rattus norvegicus [1]; [5]): 93.4 x10_2/uL
- MCV (Rattus norvegicus [1]; [6]): 57.6 fL
- PT (Rattus norvegicus [1]; [6]): 12.2 s
- WBC (Rattus norvegicus [1]; [6]): 143.6 x10_2/uL
- MCV (Rattus norvegicus [1]; [7]): 63.9 fL
- PT (Rattus norvegicus [1]; [7]): 12.4 s
- WBC (Rattus norvegicus [1]; [7]): 70.6 x10_2/uL
- MCV (Rattus norvegicus [1]; [8]): 63.3 fL
- PT (Rattus norvegicus [1]; [8]): 11.9 s
- WBC (Rattus norvegicus [1]; [8]): 85.9 x10_2/uL
- MCV (Rattus norvegicus [1]; [9]): 62.3 fL
- PT (Rattus norvegicus [1]; [9]): 12.2 s
- WBC (Rattus norvegicus [1]; [9]): 95.4 x10_2/uL
- MCV (Rattus norvegicus [1]; [10]): 58.1 fL
- PT (Rattus norvegicus [1]; [10]): 12.4 s
- WBC (Rattus norvegicus [1]; [10]): 153.8 x10_2/uL
- MCV (Rattus norvegicus [1]; [11]): 64.1 fL
- PT (Rattus norvegicus [1]; [11]): 12.4 s
- WBC (Rattus norvegicus [1]; [11]): 62.4 x10_2/uL
- MCV (Rattus norvegicus [1]; [12]): 62.2 fL
- PT (Rattus norvegicus [1]; [12]): 12.3 s
- WBC (Rattus norvegicus [1]; [12]): 86.7 x10_2/uL
- MCV (Rattus norvegicus [1]; [13]): 60.8 fL
- PT (Rattus norvegicus [1]; [13]): 12.3 s
- WBC (Rattus norvegicus [1]; [13]): 97.7 x10_2/uL
- MCV (Rattus norvegicus [1]; [14]): 58.1 fL
- WBC (Rattus norvegicus [1]; [14]): 129.8 x10_2/uL
- MCV (Rattus norvegicus [1]; [15]): 63 fL
- PT (Rattus norvegicus [1]; [15]): 12.6 s
- WBC (Rattus norvegicus [1]; [15]): 46.7 x10_2/uL
- MCV (Rattus norvegicus [1]; [16]): 63 fL
- PT (Rattus norvegicus [1]; [16]): 12.3 s
- WBC (Rattus norvegicus [1]; [16]): 76.3 x10_2/uL
- MCV (Rattus norvegicus [1]; [17]): 60.1 fL
- PT (Rattus norvegicus [1]; [17]): 12.4 s
- WBC (Rattus norvegicus [1]; [17]): 97.4 x10_2/uL
- MCV (Rattus norvegicus [1]; [18]): 57.7 fL
- PT (Rattus norvegicus [1]; [18]): 12.6 s
- WBC (Rattus norvegicus [1]; [18]): 159.4 x10_2/uL
- MCV (Rattus norvegicus [2]; [19]): 65.2 fL
- PT (Rattus norvegicus [2]; [19]): 12.3 s
- MCV (Rattus norvegicus [2]; [20]): 65 fL
- PT (Rattus norvegicus [2]; [20]): 12.2 s
- MCV (Rattus norvegicus [2]; [21]): 66.3 fL
- PT (Rattus norvegicus [2]; [21]): 12.4 s
- MCV (Rattus norvegicus [2]; [22]): 64.8 fL
- PT (Rattus norvegicus [2]; [22]): 12.2 s
- MCV (Rattus norvegicus [2]; 3 mg/kg, 3 h, dose level Low): 65.2 fL
- MCV (Rattus norvegicus [2]; 3 mg/kg, 6 h, dose level Low): 65.3 fL
- PT (Rattus norvegicus [2]; 3 mg/kg, 6 h, dose level Low): 12.2 s
- MCV (Rattus norvegicus [2]; 3 mg/kg, 9 h, dose level Low): 65.3 fL
- MCV (Rattus norvegicus [2]; 3 mg/kg, 24 h, dose level Low): 68 fL
- PT (Rattus norvegicus [2]; 3 mg/kg, 24 h, dose level Low): 12.1 s
- MCV (Rattus norvegicus [2]; [23]): 66.3 fL
- PT (Rattus norvegicus [2]; [23]): 12.4 s
- MCV (Rattus norvegicus [2]; [24]): 65.9 fL
- PT (Rattus norvegicus [2]; [24]): 12.3 s
- MCV (Rattus norvegicus [2]; [25]): 65.3 fL
- PT (Rattus norvegicus [2]; [25]): 12.3 s
- PT (Rattus norvegicus [2]; 10 mg/kg, 24 h, dose level Middle): 12.1 s
- TG (Rattus norvegicus [2]; 10 mg/kg, 24 h, tissue Plasma, dose level Middle): 124.8 mg/dL
- MCV (Rattus norvegicus [2]; 30 mg/kg, 3 h, dose level High): 64.7 fL
- PT (Rattus norvegicus [2]; 30 mg/kg, 3 h, dose level High): 12.4 s
- MCV (Rattus norvegicus [2]; 30 mg/kg, 6 h, dose level High): 63.7 fL
- PT (Rattus norvegicus [2]; 30 mg/kg, 6 h, dose level High): 12.1 s
- MCV (Rattus norvegicus [2]; 30 mg/kg, 9 h, dose level High): 65.4 fL
- PT (Rattus norvegicus [2]; 30 mg/kg, 9 h, dose level High): 12.2 s
- MCV (Rattus norvegicus [2]; [26]): 63.4 fL
- PT (Rattus norvegicus [2]; [26]): 12.3 s

Source: ChEMBL document CHEMBL3885861, “Open TG-GATES”
